According to PubChem BioAssay AID463187 (University of Pittsburgh Molecular Library Screening Center, 2010):
The entries are a selection whose mix differs from that of the whole data set. Some structures show a salt or complex split into parts, the way the source records it. Calls of active or inactive are those of the source.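 How the source made its calls: active means Hck-Nef kinase inhibition above about 50% (limit read from the data); inactive means inhibition below that limit.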

The chains behind the UniProt entries cited, without tags or fusion partners.
UniProt P08631, whole entry, looked up: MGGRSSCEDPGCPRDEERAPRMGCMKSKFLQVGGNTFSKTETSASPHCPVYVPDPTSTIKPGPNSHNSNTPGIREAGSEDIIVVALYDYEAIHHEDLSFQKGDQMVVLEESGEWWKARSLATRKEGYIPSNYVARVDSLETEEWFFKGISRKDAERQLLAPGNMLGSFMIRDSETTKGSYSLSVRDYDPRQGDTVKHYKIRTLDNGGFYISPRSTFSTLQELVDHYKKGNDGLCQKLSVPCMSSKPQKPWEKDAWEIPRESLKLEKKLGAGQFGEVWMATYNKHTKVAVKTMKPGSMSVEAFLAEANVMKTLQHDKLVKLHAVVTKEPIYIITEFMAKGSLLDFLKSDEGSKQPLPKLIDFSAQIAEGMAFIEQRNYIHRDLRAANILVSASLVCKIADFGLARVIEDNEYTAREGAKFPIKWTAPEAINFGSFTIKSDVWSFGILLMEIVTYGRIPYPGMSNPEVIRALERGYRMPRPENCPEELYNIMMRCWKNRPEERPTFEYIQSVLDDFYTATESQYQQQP

Target: Tyrosine-protein kinase HCK (Homo sapiens) (UniProt P08631)
Assay: Hck:Nef complex kinase activity blockers – biochemical, Z-Lyte FRET, 384-well, Hck-YEEI, primary screen (AID 463187);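 further: 0% = DMSO with Hck plus Nef and 100% = Hck alone without Nef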
Conditions: Recombinant Hck-YEEI plus Nef, Z-Lyte FRET kinase assay; at 20 µM; stronger effect = higher value

SMILES	inhibition
CP(=O)(Nc1ccccn1)Oc1ccc(Cl)cc1 (centres undefined)	inactive: 2.57%
CCOP(C)(=S)SCC(=O)NC(C)C(=O)O (centres undefined)	inactive: -8.91%
CCOC(=O)c1ccc(NP(C)(=O)Oc2ccc(OC)cc2)cc1 (centres undefined)	inactive: 2.59%
CCN(CC)CCCOC(=O)C(O)(c1ccccc1)c1ccccc1	inactive: 18.9%
CC(C)(C)c1ccc(OP(C)(=O)Nc2ccc(SC(F)(F)F)cc2)cc1 (centres undefined)	inactive: 1.37%
Cc1cccc(C)c1OP(C)(N)=O (centres undefined)	inactive: -3.85%
O=[N+]([O-])c1ccc2c(c1)C=Nc1ccccc1O2	inactive: 19.5%
COc1ccccc1OP(C)(=O)Nc1cc(Cl)ccc1C (centres undefined)	inactive: 20.1%
COc1ccc(OP(C)(=O)Nc2cccc(F)c2)cc1 (centres undefined)	inactive: 3.83%
Cc1cc(C)cc(OP(C)(N)=O)c1 (centres undefined)	inactive: 20.5%
CCOC(=O)c1ccc(NP(C)(=O)Oc2ccccc2)cc1 (centres undefined)	inactive: 6.08%
COc1ccccc1OP(C)(=O)Nc1ccc(C)cc1 (centres undefined)	inactive: -2.08%
Cc1ccc(NP(C)(=O)Oc2ccccc2)c(C)c1 (centres undefined)	inactive: -3.65%
COc1ccc(OP(C)(=O)Nc2ccccc2Br)cc1 (centres undefined)	inactive: 2.35%
COc1ccccc1OP(C)(=O)Nc1ccc(C)c(C)c1 (centres undefined)	inactive: 0.416%
Cc1cc(C)cc(OP(C)(=O)Nc2cccc(C(F)(F)F)c2)c1 (centres undefined)	inactive: 21.8%
CP(=O)(Nc1ccc(Cl)cc1Cl)Oc1ccccc1 (centres undefined)	inactive: 17.9%
CP(=O)(OCCOc1ccccc1)OCCOc1ccccc1	inactive: -0.672%
Cc1nc2ccc3ccccc3c2o1.O=[N+]([O-])c1cc([N+](=O)[O-])c(O)c([N+](=O)[O-])c1	inactive: 1.77%
CN(C)CCOC(=O)C(O)(c1ccccc1)C1CCCC1 (centres undefined)	inactive: 1.79%

SMILES	inhibition
COc1ccc(OP(C)(=O)Nc2ccccn2)cc1 (centres undefined)	inactive: -0.706%
COc1ccccc1OP(C)(=O)Nc1ccc(Br)cc1 (centres undefined)	inactive: 10.7%
CCc1ccc(OP(C)(=O)O)cc1	inactive: 1.28%
CP(=O)(Nc1ccccn1)Oc1ccccc1 (centres undefined)	inactive: -0.252%
COc1ccccc1OP(C)(=O)Nc1ccc(C)cc1C (centres undefined)	inactive: -1.96%
Cc1c(NP(C)(=O)Oc2ccc(C(C)C)cc2)c(=O)n(-c2ccccc2)n1C (centres undefined)	inactive: 1.2%
O=[N+]([O-])c1cc([N+](=O)[O-])c(Nc2ccccn2)c([N+](=O)[O-])c1	inactive: 18.7%
CP(=O)(Oc1ccccc1)N1CCOC1=O (centres undefined)	inactive: 0.148%
CCc1ccc(OP(C)(=O)Nc2cccnc2)cc1 (centres undefined)	inactive: -13.8%
COc1ccccc1OP(C)(=O)Nc1c(C)n(C)n(-c2ccccc2)c1=O (centres undefined)	inactive: -0.89%
O=C(OCCCN1CCCC1)C(O)(c1ccccc1)C1CCCCC1 (centres undefined)	inactive: 14.2%
CCN(CC)CC(O)COC(=O)C(O)(c1ccccc1)C1CCCCC1 (centres undefined)	inactive: 2.36%
COc1ccc(OP(C)(=O)Nc2ccc(Br)cc2)cc1 (centres undefined)	inactive: -0.0369%
CN(C)C(=O)c1c([N+](=O)[O-])cc([N+](=O)[O-])cc1[N+](=O)[O-]	inactive: 23.2%
CP(=O)(Nc1ccc(Cl)cc1)Oc1ccc(F)cc1 (centres undefined)	inactive: 0.413%
COc1ccccc1OP(C)(=O)Nc1ccccc1Br (centres undefined)	inactive: 26.3%
CC(C)(C)c1ccc(OP(C)(=O)O)cc1	inactive: -18.3%
CP(=O)(OC12CC3CC(CC(C3)C1)C2)OC12CC3CC(CC(C3)C1)C2	inactive: 2.6%
CCOC(=O)c1ccc(NP(C)(=O)Oc2ccc(Cl)cc2)cc1 (centres undefined)	inactive: -31%
COc1ccc(NP(C)(=O)Oc2ccccc2OC)cc1 (centres undefined)	inactive: 9.01%

SMILES	inhibition
CN(C)CCOC(=O)C(O)(c1ccccc1)C1CCCCC1 (centres undefined)	inactive: 1.11%
COc1ccc(OP(C)(=O)Nc2cccc(Br)c2)cc1 (centres undefined)	inactive: 1.16%
Cc1cc(-c2cccc3ccccc23)c(C)cn1.O=[N+]([O-])c1cc([N+](=O)[O-])c(O)c([N+](=O)[O-])c1	inactive: 1.38%
O=[N+]([O-])c1cc([N+](=O)[O-])c(NCC2CCS(=O)(=O)C2)c([N+](=O)[O-])c1 (centres undefined)	inactive: -11.8%
O=[N+]([O-])c1ccc(OP2(=O)COCCO2)cc1 (centres undefined)	inactive: -2.29%
CCOP(C)(=S)SCC(=O)NC(C)(CC)C(=O)O (centres undefined)	inactive: 0.58%
CP(=O)(Nc1ccc(SC(F)(F)F)cc1)Oc1ccc(F)cc1 (centres undefined)	inactive: 15.5%
Cc1ccccc1NP(C)(=O)Nc1ccccc1C	inactive: -9.1%
CP(=O)(Nc1ccc2c(c1)OCCO2)Oc1ccccc1 (centres undefined)	inactive: -0.525%
CC(C)c1ccc(OP(C)(=O)Nc2ccc(SC(F)(F)F)cc2)cc1 (centres undefined)	inactive: 4.53%
CP(=O)(Nc1ccccc1F)Oc1ccccc1 (centres undefined)	inactive: 1.34%
COc1ccc2c(c1O)-c1c(O)c(OC)cc3c1[C@H](C2)[N+](C)(C)CC3.O=[N+]([O-])c1cc([N+](=O)[O-])c([O-])c([N+](=O)[O-])c1[O-]	inactive: 23.2%
O=C(OCCN1CCN(CCOCc2ccccc2)CC1)C(O)(c1ccccc1)c1ccccc1	inactive: 2.33%
O=C(OC1CN2CCC1CC2)c1ccc([N+](=O)[O-])cc1 (centres undefined)	inactive: -0.273%
COc1ccc(OP(C)(=O)Nc2ccc(SC(F)(F)F)cc2)cc1 (centres undefined)	inactive: 14.3%
CCOC(=O)c1ccc(NP(C)(=O)Oc2ccc(F)cc2)cc1 (centres undefined)	inactive: -0.983%
CCCCCOc1ccc(NP(C)(=O)Oc2ccc(Cl)cc2Cl)cc1 (centres undefined)	inactive: -3.98%
CP(=O)(Nc1ccccc1)Oc1ccc(F)cc1 (centres undefined)	inactive: 1.17%
CCN(CC)CCCOC(=O)C(O)(c1ccccc1)C1CCCCC1 (centres undefined)	inactive: 10.9%
